{
  "source": "patent US20120309704A1",
  "about": "“COMPOSITIONS FOR TREATMENT OF CHEMORESISTANT AND/OR POTENTIALLY CHEMORESISTANT LEUKAEMIAS” (priority 2009, published 2012)",
  "tested_on": "697 cells",
  "test": "Annexin V/propidium iodide apoptosis of 697 cells cultured in the absence or presence of marrow stromal cells (MSC)",
  "format": "cell-based, human",
  "data": [
    {"compound": "COc1cccc2c1C(=O)c1c(O)c3c(c(O)c1C2=O)C[C@@](O)(C(=O)CO)C[C@@H]3O[C@H]1C[C@H](N)[C@H](O)[C@H](C)O1", "note": "[doxorubicin]", "values": [
      {"measurement": "proapototic effect of the drug when leukaemic cells are cultured in the presence of bone marrow stromal cells (MSC)", "value": "almost completely abolished"}
    ]}
  ]
}
